Values quoted from earlier work as cited in patent US11426422B2, “SHP2 inhibitors and methods of use thereof” (Research Development Foundation, priority 2018, dated 2022).

Target: SHP2 (Homo sapiens, UniProt Q06124)
Conditions: allosteric, stabilizes the inactive conformation; cited from earlier work

In the case of `CC1(N)CCN(c2cnc(-c3cccc(Cl)c3Cl)c(N)n2)CC1` [SHP099], the SHP2 phosphatase activity is listed as “inhibiting its phosphatase activity”.
